Experimental data taken from PubChem BioAssay AID2241 (Broad Institute, 2010).
This is a selection; strong and weak results do not stand in their true shares. The source made the active and inactive calls.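 The calls were made as follows: active = most replicate scores above 10, or exactly half above 10 with mean activity above 10; inconclusive = mean activity below 10 while half the replicates exceed 10; inactive = most replicate scores below 10.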

Test: inducers of caspase activity in MEF A1-2A-BIM cells, primary screen, A1 inhibitor project, cell-based, CaspaseGlo luminescence (AID 2241);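 also: effector caspase 3 and 7 activity cleaving a DEVD luciferin substrate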
Settings: caspase-Glo luminescence, 3 h, stronger effect = higher value, percent of clofoctol signal, DMSO as zero, concentration not given here

| SMILES | caspase activation |
| --- | --- |
| CC(C)(C)OC(=O)N1CCC(Nc2ccc(OC(F)(F)F)cc2)CC1 | inactive: 1.3% |
| FC(F)(F)Oc1ccc(NC2CCNCC2)cc1 | inactive: -0.436% |
